Test [1] deals with HRI (heme-regulated inhibitor) (UniProt Q9BQI3). Nature of the test: size-exclusion chromatography (Superdex 200). Particulars: reference: autophosphorylated HRI; sites S6,S41,T97,S114,S115,S144,S151,T160,Y192,Y193,S253,S258,S275,S276,S277,S278,S295,T297,S304,T308,T309,Y405,S409,Y413,T467,T477,T486,T488,S489,T493,Y496,S498,S505,T538,T542,S548,T564,S586,S615. (In general: In gel filtration, larger molecules generally elute earlier.)

By UniProt entry, the sequences of proteins in these tests, tags left out.
UniProt Q9BQI3, whole entry: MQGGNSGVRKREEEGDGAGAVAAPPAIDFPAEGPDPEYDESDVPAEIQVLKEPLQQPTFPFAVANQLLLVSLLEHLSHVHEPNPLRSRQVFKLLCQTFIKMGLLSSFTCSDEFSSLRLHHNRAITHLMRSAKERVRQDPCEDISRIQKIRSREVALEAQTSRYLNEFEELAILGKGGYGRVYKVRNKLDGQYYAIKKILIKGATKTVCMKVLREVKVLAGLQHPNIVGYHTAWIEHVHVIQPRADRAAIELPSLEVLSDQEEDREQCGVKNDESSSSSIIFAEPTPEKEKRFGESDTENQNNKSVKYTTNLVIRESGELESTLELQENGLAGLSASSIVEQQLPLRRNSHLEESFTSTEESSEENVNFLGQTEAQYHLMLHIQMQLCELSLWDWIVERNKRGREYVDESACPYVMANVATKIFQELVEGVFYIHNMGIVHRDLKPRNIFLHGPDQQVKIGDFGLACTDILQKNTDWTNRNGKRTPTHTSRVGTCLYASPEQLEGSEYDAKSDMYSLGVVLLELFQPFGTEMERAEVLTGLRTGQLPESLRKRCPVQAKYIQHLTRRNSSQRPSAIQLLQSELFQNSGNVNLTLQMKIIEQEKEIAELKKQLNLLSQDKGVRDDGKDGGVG

Test [2] shares this target. As to the kind of experiment: mass photometry. Particulars: reference: autophosphorylated HRI; sites S6,S41,T97,S114,S115,S144,S151,T160,Y192,Y193,S253,S258,S275,S276,S277,S278,S295,T297,S304,T308,T309,Y405,S409,Y413,T467,T477,T486,T488,S489,T493,Y496,S498,S505,T538,T542,S548,T564,S586,S615.

Take “HRI (heme-regulated inhibitor) (from UniProt Q9BQI3) lambda phosphatase-dephosphorylated HRI”: in test [1], the “other: retention volume” value is listed as “same; reference 10.47”.
With “HRI (heme-regulated inhibitor) (from UniProt Q9BQI3) dephosphorylated HRI”, in test [2], the “other: mass of predominant population” value was “same; reference ~150”.

Values taken from PMC12235045, “Structural insights into allosteric inhibition of HRI kinase by heme binding via HDX-MS” (Biochemical Journal, 2025).
